Compound activity from PubChem.
CDK5 inh = inhibitors of human CDK5/p35 kinase, primary screen, biochemical, single concentration | AID 488839, 2010 | Cyclin-dependent kinase 5 (Homo sapiens) + Cyclin-dependent kinase 5 activator 1 (Homo … | inhibition, % at 10 µM | 330,000 compounds, 0.01% hits | Recombinant CDK5/p35, ADP-Glo luminescence, 60 min;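 active = highest replicate inhibition of at least 50% and at least 75% of replicates reaching 50%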
CAL PDZ FP-1 = CAL PDZ peptide-binding inhibitors, primary screen, biochemical, fluorescence polarization, Cer-tagged CAL PDZ, HTS; 330,000 compounds, 0.02% hits; AID 504414, 2011; Golgi-associated PDZ and coiled-coil motif-containing protein (Homo sapiens), Q9HD26; purified CAL PDZ, TMR-peptide fluorescence polarization, 1 h; inhibition, % at 20 µM;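 active = highest replicate inhibition of at least 40%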
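Material: tagged CAL PDZ protein CerCALP, purified; buffer or medium: sodium phosphate/NaCl buffer pH 7.4 with TCEP, IgG, Thesit; also added: fluorescent TMR peptide probe; schedule: 1 h incubation at room temperature before polarization reading; technique: fluorescence polarization from S- and P-plane intensities, G-factor corrected; control set: unlabelled peptide and DMSO controls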
CAL PDZ FP-2 = untagged CAL PDZ binding inhibitors, primary screen, biochemical, fluorescence polarization, HTS; purified CAL PDZ, TMR-peptide fluorescence polarization, 1 h; 300,000 compounds, 0.92% hits; AID 602252, 2012; inhibition, % at 24.9 µM; Golgi-associated PDZ and coiled-coil motif-containing protein (Homo sapiens), Q9HD26;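 active = mean inhibition of at least 30% with at least half of replicates also reaching 30%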
Yeast UUG start = modulators of yeast start codon fidelity, primary screen, whole organism, S. cerevisiae, single point, plate reader. S. cerevisiae UUG-firefly luciferase reporter, luminescence/redox ratio. activity score, % at 18.7 µM. actives 0.13% (n = 350,000);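 active = replicate mean at a twofold rise or more, about +100% in these data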;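 note: firefly luciferase made from a UUG start codon reports start codon fidelity; reporter light over untreated wells divided by growth signal over untreated wells; some hits fall short of that in this replicate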
DYRK1A inh = rat Dyrk1A kinase inhibitors, primary screen, biochemical, single point, plate reader. AID 504441, 2011. ADP-Glo luminescence, NFATc1 peptide. 310,000 compounds, 0.43% hits. inhibition, % at 12.5 µM. Dual specificity tyrosine-phosphorylation-regulated kinase 1A (Rattus norvegicus), Q63470; in the data active = inhibition above about 50%
dFosB activator = activators of delta FosB homodimer, primary screen, biochemical, fluorescence polarization, TAMRA-CDK5 oligo, single point; purified delta FosB; percent of positive-control signal above neutral wells; activation, % at 25 µM; 340,000 compounds, 0.99% hits; AID 493131, 2011;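 active = mean activation above about 17%, with every replicate also reaching it, limit read from the data, passing the limit was not always enough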
Numbers stand for hits; . = inactive; / = not tested or not shown. Rows were chosen to be rich in hits. Some 1.7% of all compounds tested hit in one or more screens of this group.

SMILES | CDK5 inh | CAL PDZ FP-1 | CAL PDZ FP-2 | Yeast UUG start | DYRK1A inh | dFosB activator
C[C@@H]1CCCCO[C@H](CN(C)C(=O)CCCN(C)C)[C@H](C)CN([C@@H](C)CO)C(=O)c2cc(NS(C)(=O)=O)ccc2O1 | / | / | / | . | / | /
COc1cc(Nc2c3ccccc3nc3ccccc23)cc(OC)c1OC | . | . | . | . | . | 44
COc1ccccc1Nc1c2ccccc2nc2ccccc12 | . | . | . | . | . | 37
COc1ccc(Nc2c3c(nc4ccccc24)CCCC3)cc1OC | . | . | . | / | . | .
COc1ccc(Nc2c3ccccc3nc3ccccc23)cc1 | . | . | . | . | . | 60
COc1ccc(Nc2c3c(nc4ccccc24)CCC3)cc1 | . | . | . | . | . | .
COc1ccccc1Nc1nc(-c2ccccc2)nc2ccccc12 | . | . | . | / | . | .
CCN(CC)c1ccc(Nc2nc(N3CCOCC3)c3ccccc3n2)cc1 | . | . | . | . | . | .
COc1ccc(Nc2nc(N3CCCC3)c3ccccc3n2)cc1 | . | . | . | / | . | 59
C[C@H](CO)N1C[C@H](C)[C@@H](CN(C)S(=O)(=O)c2ccc(Cl)cc2)Oc2ccc(NC(=O)C3CCCCC3)cc2CC1=O | / | / | / | . | / | /
C[C@@H]1CN([C@@H](C)CO)C(=O)c2cc(/C=C/c3ccccc3)cnc2O[C@H]1CN(C)C(=O)c1cnccn1 | / | / | / | . | / | /
CC(C)C#Cc1cnc2c(c1)C(=O)N([C@@H](C)CO)C[C@H](C)[C@H](CN(C)C(=O)c1cnccn1)O2 | / | / | / | . | / | /
C[C@H]1CCCCO[C@H](CN(C)C(=O)c2ccccc2)[C@@H](C)CN([C@@H](C)CO)C(=O)c2cc(NC(=O)CCCN(C)C)ccc2O1 | / | / | / | . | / | /
Cc1ccc(S(=O)(=O)NC(CC(C)C)C(=O)N2CC(C)OC(C)C2)cc1 (configuration not stated) | . | . | 75 | . | . | .
Cc1ccc(S(=O)(=O)NC(CC(C)C)C(=O)N2CCOCCOCCOCC2)cc1 (configuration not stated) | . | . | . | . | . | .
COc1cc2sc3cc(NCC[C@@H]4CCCN4C)ccc3c(=O)c2cc1OC | . | . | . | . | . | 30
Cc1ccc(S(=O)(=O)Nc2ccc(NC(=O)Nc3cccc(C(F)(F)F)c3)cc2)cc1 | . | . | 74 | / | . | .
CCN(CC)S(=O)(=O)c1ccc(NC(=O)Nc2cccc(C(F)(F)F)c2)cc1 | . | . | . | . | . | .
Cc1cccn2c(=O)c3cc(C(=O)NC4CCCCC4)c(=N)n(Cc4ccccc4)c3nc12 | . | . | . | . | . | 43
O=C(C[C@H]1C=C[C@H](NC(=O)Nc2cc(F)ccc2F)[C@@H](CO)O1)NCCCN1CCOCC1 | / | / | / | . | / | /
C[C@H](CO)N1C[C@H](C)[C@@H](CN(C)CC2CCCCC2)Oc2ncc(C#C[C@@H](C)O)cc2C1=O | / | / | / | . | / | /
COc1ccc(-c2ncc(CN3CCN(CCC(C)C)C(CCO)C3)cn2)cc1 (configuration not stated) | . | . | 93 | / | . | .
Cc1nnc(SC(C)C#N)n1-c1ccccc1 (configuration not stated) | . | . | 76 | / | . | .
Cc1nnc(SCc2ccccc2C#N)n1-c1ccccc1 | . | / | . | . | . | .
O=C(NNc1cc(N2CCCC2)nc(N2CCCC2)n1)c1ccc([N+](=O)[O-])cc1 | . | . | 30 | / | . | .
SMILES | CDK5 inh | CAL PDZ FP-1 | CAL PDZ FP-2 | Yeast UUG start | DYRK1A inh | dFosB activator
COc1ccc(S(=O)(=O)N(C)C[C@H]2Oc3ccc(NC(=O)C4CCCCC4)cc3CC(=O)N([C@H](C)CO)C[C@H]2C)cc1 | / | / | / | . | / | /
CCS(=O)(=O)N1CCN(c2ccc([N+](=O)[O-])c(NCc3ccccc3)c2)CC1 | . | . | / | 240 | . | .
CS(=O)(=O)N1CCN(c2ccc([N+](=O)[O-])c(NCc3ccccc3)c2)CC1 | . | . | . | . | . | .
CCc1c(C)c(C#N)c2nc3ccccc3n2c1NCC1CCCO1 (configuration not stated) | . | . | 31 | . | . | .
Cc1cccc(S(=O)(=O)N2CC[C@@H]3[C@H]2c2cc(-c4ccccc4F)ccc2N(C)[C@H]3CO)c1 | / | / | / | . | / | /
CCN(CC)CCOC(=O)c1ccc(NC(=O)CSc2nnc(-c3cccs3)n2CC)cc1 | . | . | 61 | . | . | .
O=C(NC(=S)Nc1ccccc1[N+](=O)[O-])c1ccccc1Cl | . | . | . | . | . | .
CC(C)(C)CC(=O)NC(=S)Nc1ccccc1[N+](=O)[O-] | . | . | 101 | / | . | .
CC(C)C(NC(=O)c1ccccc1Br)c1ccccc1 (configuration not stated) | . | . | . | / | . | .
CC(NC(=S)NC(=O)c1ccccc1Br)c1ccccc1 (configuration not stated) | . | / | 77 | . | . | .
CCN(CC(=O)NCc1cccs1)C(=O)c1ccccc1Cl | . | . | 52 | / | / | .
CCN(CC(=O)NCc1cccs1)C(=O)c1cc(=O)[nH]c2ccccc12 | . | . | 74 | . | . | .
O=C(NNC(=O)C1CCC1)c1ccc(Br)cc1 | . | . | 50 | . | . | .
O=C(NNC(=O)C1CCCCC1)c1ccc(Br)cc1 | . | . | . | / | . | .
CCN(CC)c1ccc(N2C(=O)c3ccccc3C2=O)cc1 | . | / | 102 | . | . | .
Cc1ccc(N(C(C)C(=O)O)S(=O)(=O)c2c(C)[nH]c(=O)[nH]c2=O)cc1 (configuration not stated) | . | . | . | . | . | 16
Cn1c(C(=O)N2CCN(c3ccc([N+](=O)[O-])cc3)CC2)cc2c(=O)[nH]c3ccccc3c21 | . | . | . | . | . | 23
Cc1cc(C(=O)N2CCN(c3ccc([N+](=O)[O-])cc3)CC2)co1 | . | . | / | . | / | .
COc1cc(-c2nnc(-c3cc(OC)c(OC)c(OC)c3)o2)cc(OC)c1OC | . | . | 44 | . | . | .
CCN(CC)CCCNC(=O)c1cn(CC(C)C)c(=O)c2c1c1ccccc1n2C | . | . | 50 | . | . | .
CCCCN(CC)CCCNC(=O)c1cn(CC(C)C)c(=O)c2c1c1ccccc1n2C | . | . | . | . | . | .
COc1cccc(C(=O)NNC(=S)NC2CCCCC2)c1 | . | . | . | . | . | .
COc1cc(OC)cc(C(=O)NNC(=S)NC2CC2)c1 | . | . | 57 | / | . | .
